scFv variants of Ab-95 (light chain) against a SARS-CoV-2 spike peptide

Data: MIT Lincoln Laboratory AlphaSeq set, Engelhart et al. 2022, doi:10.1038/s41597-022-01779-4, as distributed in FLAb.

Target peptide (SARS-CoV-2 spike, HR2 region): PDVDLGDISGINAS

Parent scFv Ab-95: VH joined to VL by a 15-residue (Gly4Ser)3 linker. Changes lie in the light chain CDRs alone.
VH: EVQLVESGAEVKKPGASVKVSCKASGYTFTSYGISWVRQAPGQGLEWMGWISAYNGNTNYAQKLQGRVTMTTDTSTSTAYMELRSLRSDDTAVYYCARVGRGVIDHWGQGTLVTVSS
VL: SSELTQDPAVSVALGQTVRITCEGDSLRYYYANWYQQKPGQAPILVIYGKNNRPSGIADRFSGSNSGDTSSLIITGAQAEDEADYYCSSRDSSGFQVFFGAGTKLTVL

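The starting antibody came from a phage panning campaign against this peptide. Library AAYL52 holds single substitutions and randomly drawn double and triple substitutions in the CDRs. The scFvs were displayed on barcoded MATa yeast, the peptide on MATalpha yeast. After mating in shaken culture at 30 °C for 16 h, diploids were selected and their barcode pairs sequenced. Each replicate has its own calibration line, from reference interactions of the BCL2 family. Each pool was mated in three replicate cultures.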

Variants are written as CDR1, CDR2 and CDR3 of the light chain (limits as in the source). Parent: EGDSLRYYYAN, GKNNRPS, SSRDSSGFQVF.
Affinities are written as log10 Kd with Kd in nM; a lower number is a better binder.
Where no diploid with the target was found in that replicate, the entry reads "nd": below detection, most likely a poor binder, though not proof of it.

| CDR-L1 | CDR-L2 | CDR-L3 | replicates, log10 nM | empty controls |
|---|---|---|---|---|
| LGDSHRYYYAN | GKNNRPS | SSRDSSGFQVV | nd / nd / 3.68 | 3/9 (3.95) |
| EEDSLRYYYAN | GKNNRCS | SSRDSSGFFVF | 3.25 / nd / nd | 0/9 |
| EGYSLRYYYAN | GKNNRPS | SSPDSGGFQVF | nd / nd / 3.38 | 3/9 (4.31) |
| EQDSLRYYSAN | GKNNRPS | SSRDSSGFQVF | 2.84 / 3.28 / 2.38 | 5/9 (4.42) |
| EGDSFRKYYAN | GKNNRPS | SSRDSWGFQVF | 4.51 / nd / nd | 1/9 (4.44) |
| EGDSLRYYYAN | GKAVRPS | SSSDSSGFQVF | 3.71 / nd / nd | 2/9 (4.72) |
| EGDILRYYYAN | GKNNREN | SSRDSSGFQVF | nd / nd / nd | 0/9 |
| EGDSLRYYYAH | GKNNRVS | SSMDSSGFQVF | nd / 4.83 / 3.86 | 0/9 |
| EGDPLRYYWAN | GKNNRPS | SSRDSSGFQVF | nd / nd / 2.32 | 0/9 |
| SGDSLRYYYAN | GKNNRPS | SSRDSSGYQVF | 1.68 / 1.76 / 1.52 | 2/9 (4.73) |
| CGDSLRYYYAN | GKNNRPS | ESRDSSGAQVF | nd / 3.27 / 2.17 | 1/9 (2.76) |
| ESDLLRYYYAN | GKNNRPS | SSRDSSGFQVL | 3.37 / 3.66 / 3.35 | 0/9 |
| EGDSLRYYYAN | GKNLRPS | SSRPSSGFQVD | 4.46 / 5.64 / nd | 3/9 (4.56) |
| EGDSLRYYYAV | GINNRPS | SPRDSSGFQVF | nd / nd / nd | 2/9 (3.90) |
| EGDSLRYYYAN | GKKNRPS | SSDDESGFQVF | 4.50 / nd / nd | 0/9 |
| EMDSLRYYYAN | GKNNCPS | SSRDSSGFQVF | 5.39 / nd / 4.13 | 4/9 (4.33) |
| EGDSLRYYYAN | GKNNRPS | SSRDSEGFQAF | 4.05 / nd / nd | 2/9 (4.11) |
| EGDSLRYYYAN | GKNMRPS | SSEDSSGRQVF | 3.12 / 3.76 / 3.91 | 2/9 (4.98) |
| EGDSVRYYYAN | GHNNRPS | SSKDSSGFQVF | nd / nd / nd | 4/9 (2.93) |
| EGDSLRYYYTN | GKNNRPS | SYRISSGFQVF | 3.15 / 2.63 / 2.44 | 3/9 (3.89) |
| EGDSLRYYYAN | GLQNRPS | SSRDSSGFQPF | nd / 3.90 / 4.21 | 2/9 (3.46) |
| TGDSGRYYYAN | GKNERPS | SSRDSSGFQVF | 4.08 / 2.87 / 3.30 | 3/9 (3.73) |
| EGDSLRYYYAN | FKNTRPS | SSRDSSGFHVF | 3.76 / nd / nd | 2/9 (3.64) |
| EGDSLRYYYAN | GKNNDPS | SHRDSSEFQVF | 3.54 / nd / nd | 2/9 (2.75) |
| EGDSLRYPYAN | GKNNRPD | SSRDSSGFQVF | 1.35 / 1.21 / 0.84 | 2/9 (4.57) |
| QGDSLRYYWAN | GKNNRPS | SSRDSSTFQVF | 3.47 / 2.76 / 3.16 | 4/9 (3.76) |
| EGDSLRYYMAN | GKNNRPS | ESRDSSGFQVK | 2.48 / 3.05 / 2.52 | 0/9 |
| EGDSLRYYYAN | GKNNRPS | SSDDSSGYIVF | 3.38 / 2.02 / 2.54 | 3/9 (3.70) |
| EGDNLRYYYAN | GKYNRPS | SSNDSSGFQVF | 5.43 / 4.52 / nd | 2/9 (4.41) |
| EGDSFRYYYAN | GKNWRPS | SSRYSSGFQVF | 3.91 / 5.27 / nd | 4/9 (4.00) |

The last 4 entries again:

{"CDR-L1": "EGDSLRYYMAN", "CDR-L2": "GKNNRPS", "CDR-L3": "ESRDSSGFQVK", "replicates, log10 nM": "2.48 / 3.05 / 2.52", "empty controls": "0/9"}
{"CDR-L1": "EGDSLRYYYAN", "CDR-L2": "GKNNRPS", "CDR-L3": "SSDDSSGYIVF", "replicates, log10 nM": "3.38 / 2.02 / 2.54", "empty controls": "3/9 (3.70)"}
{"CDR-L1": "EGDNLRYYYAN", "CDR-L2": "GKYNRPS", "CDR-L3": "SSNDSSGFQVF", "replicates, log10 nM": "5.43 / 4.52 / nd", "empty controls": "2/9 (4.41)"}
{"CDR-L1": "EGDSFRYYYAN", "CDR-L2": "GKNWRPS", "CDR-L3": "SSRYSSGFQVF", "replicates, log10 nM": "3.91 / 5.27 / nd", "empty controls": "4/9 (4.00)"}

For reference, the parent read 2.31 as the reference entry and 2.25 as a member of this library.
Empty control strains, which show no peptide, gave a signal in 28% of pairings with library AAYL52; the median was 3.91 and 95% of these signals were weaker than 2.90. No background was subtracted. Also given: how often the same scFv was detected with the empty control strains, with their mean in brackets.